# According to patent US10105357B2, “Indication of antibiotic drugs for preparation of cancer inhibition pharmaceutical composition” (LAUNX BIOMEDICAL CO., LTD., priority 2014, dated 2018):
# Experiments:
# [1] = tested on: HL-60 (Acute Promyelocytic Leukemia); test: Cell viability analysis, leukemia HL-60; assay type: cell-based; details: Homo sapiens, drug 10 μM, 72 hours, WST-1, OD450 nm, read-out: cell viability (survival rate), HL-60
# [2] = tested on: HeLa (Cervix Adenocarcinoma); test: Cell viability analysis, cervical cancer HeLa; details: Homo sapiens, 72 h, read-out: cell viability (survival rate), HeLa
# [3] = tested on: MCF7 (Mammary Gland, Adenocarcinoma); test: Cell viability analysis, breast cancer MCF7; assay type: cell-based; details: Homo sapiens, drug 10 μM, 72 hours, WST-1, OD450 nm, read-out: cell viability (survival rate), MCF7
# [4] = tested on: A375 (Amelanotic Melanoma); test: Cell viability analysis, skin cancer A375; assay type: cell-based, human; details: Homo sapiens, A-375; drug 10 μM, 72 hours, WST-1, OD450 nm; read-out: cell viability (survival rate), A375
# [5] = tested on: HepG2 (Hepatocellular Carcinoma); test: Cell viability analysis, hepatic cancer HepG2; details: Homo sapiens, HepG2, 72 h, read-out: cell viability (survival rate), HepG2
# [6] = tested on: PC3 (p53−) (Prostate Adenocarcinoma); test: Cell viability analysis, prostate cancer PC3; assay type: cell-based; details: Homo sapiens; drug 10 μM, 72 hours, WST-1, OD450 nm; read-out: cell viability (survival rate), PC3
compound,measurement,setting,value
CC1(C)[C@H](C(=O)O)N2C(=O)C[C@H]2S1(=O)=O [Sulbactam],viability at 10 µM,[1],104%
same,viability at 10 µM,[2],103%
same,viability at 10 µM,[3],108%
same,viability at 10 µM,[4],84.5%
same,viability at 10 µM,[5],91.9%
same,viability at 10 µM,[6],106%
